Test results as given in paper PMC5225183, “Fingerprinting of neurotoxic compounds using a mouse embryonic stem cell dual luminescence reporter assay” (Archives of Toxicology, 2016).

Assays:
[1] = Table S1, three classes; ref per compound in the footnotes of Table S1; cited from earlier work
[2] = tested on: ESCs and ESC-derived neurons; conditions: mouse

CC(C)(C)C(=O)C(Oc1ccc(Cl)cc1)n1cncn1 (centres unmarked) [Triadimefon]
class based on clinical evidence for neurotoxicity [1]: Possibly (developmental)
Number of non-cytotoxic changes [2]: 2
